According to patent US20230414509A1, “HYDROPHOBIC DRUGS IN ORGANIC CORE HIGH DENSITY LIPOPROTEIN (HDL) NANOPARTICLES” (NORTHWESTERN UNIVERSITY, priority 2020, published 2023):

Target: T1, p38γ kinase (Homo sapiens, UniProt P53778)
T1 sequence (P53778 1-367): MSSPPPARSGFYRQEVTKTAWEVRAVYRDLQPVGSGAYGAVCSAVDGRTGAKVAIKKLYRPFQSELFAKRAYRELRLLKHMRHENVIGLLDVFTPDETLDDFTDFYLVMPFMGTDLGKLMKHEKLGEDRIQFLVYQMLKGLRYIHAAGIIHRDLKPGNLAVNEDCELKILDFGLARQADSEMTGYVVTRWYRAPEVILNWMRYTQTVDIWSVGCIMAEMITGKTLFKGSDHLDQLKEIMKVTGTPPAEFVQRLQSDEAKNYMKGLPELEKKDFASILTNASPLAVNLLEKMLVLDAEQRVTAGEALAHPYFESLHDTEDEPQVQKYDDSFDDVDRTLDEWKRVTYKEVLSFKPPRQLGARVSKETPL
Test: In vitro enzyme kinetics of inhibition of p38γ kinase (time-resolved fluorescence energy transfer)
Assay type: biochemical
Conditions: competitive inhibition model, ATP-dependent; read-out: Ki specific to p38γ
Text: FIG. 2A: An ADP-Glo in vitro kinase assay was used to calculate IC50 for PIK75 inhibition of kinas activity of the four p38 isoforms, normalized to DMSO control. Calculated IC50, values (micromole/Liter) are indicated. FIG. 2B: Time-resolved fluorescence energy transfer was used to measure in vitro enzyme kinetics of inhibition of p38γ kinase at indicated concentrations of PIK75. Counts per minute (CPM) corresponds to product formation level. The error bar of the measurements represents standard deviation of triplicate data. Solid lines represent data fitting to the competitive inhibition model. Calculated Ki and Km are indicated. FIG. 2C: Mapping of the CSPs induced by PIK75 binding to p38γ on the docked structure of p38γ in complex with PIK75. […] The residues with the largest line-broadening effects are indicated in red, and those with significant CSPs (>0.05 ppm) are indicated in green with their sidechains shown in stick form. L58 and L170 are within a 3-angstrom distance of PIK75. ANP, an analogue of ATP molecule with extra nitrogen bonds (a non-hydrolyzable ATP analogue); ATP, adenosine triphosphate; SCP, chemical shift perturbation; Ctrl, control; IC50, half maximal inhibitory concentration; Ki enzyme constants for inhibitors; Km, enzyme constants for substrates; M, mol/L; SS, Sezary syndrome. Cutaneous T cell lymphoma (CTCL) is a disfiguring and aggressive cancer. […]

For Cc1ccc([N+](=O)[O-])cc1S(=O)(=O)N(C)/N=C/c1cnc2ccc(Br)cn12.Cl [F7, PIK75], the Ki was 12 nM.
